From US12670969B2, “Network medicine framework for identifying drug repurposing opportunities” (Northeastern University, priority 2020, dated 2026)
Where two headings read alike, the source gives them in different places.

Tested on: SARS-CoV-2
Format: cell-based
Details: nine-point dilution series from 25 μM to 100 nM

Structure (SMILES)	anti-SARS-CoV-2 response (viral load reduction) in Huh7 cells	further results
CC[C@]1(O)C[C@@H]2CN(CCc3c([nH]c4ccccc34)[C@@](C(=O)OC)(c3cc4c(cc3OC)N(C)[C@H]3[C@@](O)(C(=O)OC)[C@H](OC(C)=O)[C@]5(CC)C=CCN6CC[C@]43[C@@H]65)C2)C1 [vinblastine]	very strong anti-SARS-CoV-2 response	anti-SARS-CoV-2 response (viral load reduction) in Huh7 cells (listed as Vinblastine): able to reduce the viral load
CN(Cc1cnc2nc(N)nc(N)c2n1)c1ccc(C(=O)N[C@@H](CCC(=O)O)C(=O)O)cc1 [methotrexate]	able to reduce the viral load	–
CN1CCCC(n2nc(Cc3ccc(Cl)cc3)c3ccccc3c2=O)CC1 (centres unmarked) [azelastine]	very strong anti-SARS-CoV-2 response	anti-SARS-CoV-2 response (viral load reduction) in Huh7 cells (listed as Azelastine): able to reduce the viral load
CC(=O)OC[C@H]1O[C@@H]([S-])[C@H](OC(C)=O)[C@@H](OC(C)=O)[C@@H]1OC(C)=O.CCP(CC)CC.[Au+] [auranofin]	–	anti-SARS-CoV-2 response (viral load reduction) in Huh7 cells (listed as Auranofin): able to reduce the viral load
C[C@H]1O[C@@H](O[C@H]2[C@@H](O)C[C@H](O[C@H]3[C@@H](O)C[C@H](O[C@H]4CC[C@@]5(C)[C@H](CC[C@@H]6[C@@H]5C[C@@H](O)[C@]5(C)[C@@H](C7=CC(=O)OC7)CC[C@]65O)C4)O[C@@H]3C)O[C@@H]2C)C[C@H](O)[C@@H]1O [digoxin]	very strong anti-SARS-CoV-2 response	anti-SARS-CoV-2 response (viral load reduction) in Huh7 cells (listed as Digoxin): able to reduce the viral load
